Source: US20150273057A1, “Combination” (GLAXOSMITHKLINE LLC, priority 2012, published 2015)

What was measured:
Test in all cases: Cell growth inhibition assay (Cell Titer Glo, 7 days)
Type in all cases: cell-based, Human
[1] = system: A375; settings: A375 melanoma line, relative to vehicle (DMSO)
Description: (§1) Human colon tumor lines, Colo-205, HT-29, RKO, SW1417, LS411N and human melanoma line A375 were from ATCC. All lines were cultured in RPMI 1640 medium containing 10% fetal bovine serum (FBS).
(§2) All cells were cultured for a minimum of 72 hours prior to cell plating. Cells were assayed in a 96-well tissue culture plate (NUNC 136102) of RPMI medium containing 10% FBS for all cells at 500 cells per well. Approximately 24 hours after plating, cells were exposed to ten, three-fold serial dilutions of Compound B or the combination of Compound B and an EGFR inhibitor, as used herein cetuximab or erlotinib, at a constant molar to molar ratio of 10:1, with or without the addition of 3 nM of Compound A. Cells were incubated in the presence of compounds for 7 days. ATP levels were determined by adding Cell Titer Glo® (Promega) according to the manufacturer's protocol. Briefly, Cell Titer Glo0 was added to each plate, incubated for 30 minutes then luminescent signal was read on the SpectraMax L plate reader with a 0.5 sec integration time.
(§3) Inhibition of cell growth was estimated after treatment with compound or combination of compounds for 7 days and comparing the signal to cells treated with vehicle (DMSO). Cell growth was calculated relative to vehicle (DMSO) treated control wells.

[2] = system: Colo-205; settings: Colo-205 BRAF V600E mutant CRC line, relative to vehicle (DMSO)
Description: as §1, §2, §3

[3] = system: HT-29; settings: HT-29 BRAF V600E mutant CRC line, relative to vehicle (DMSO)
Description: as §1, §2, §3

[4] = system: LS411N; settings: LS411N BRAF V600E mutant CRC line, relative to vehicle (DMSO)
Description: as §1, §2, §3

[5] = system: RKO; settings: RKO BRAF V600E mutant CRC line, relative to vehicle (DMSO)
Description: as §1, §2, §3

[6] = system: SW1417; settings: SW1417 BRAF V600E mutant CRC line, relative to vehicle (DMSO)
Description: as §1, §2, §3

Measured: cell growth inhibition, agent alone

Cetuximab: monoclonal antibody binding EGFR; Fv regions of 225 murine antibody with human IgG1 heavy and kappa light chain constant regions
inactive: all assays above
